Measured values published in patent US6762171B1, “Fatty acid CoA thioester inhibitory substance of PPARα and PPARγ” (Kyorin Pharmaceutical Co, Ltd., priority 2002, dated 2004).

By UniProt entry, the sequences of proteins in these tests, tags left out. Residues count along the entry.
UniProt P37231, 238-503 limits assumed: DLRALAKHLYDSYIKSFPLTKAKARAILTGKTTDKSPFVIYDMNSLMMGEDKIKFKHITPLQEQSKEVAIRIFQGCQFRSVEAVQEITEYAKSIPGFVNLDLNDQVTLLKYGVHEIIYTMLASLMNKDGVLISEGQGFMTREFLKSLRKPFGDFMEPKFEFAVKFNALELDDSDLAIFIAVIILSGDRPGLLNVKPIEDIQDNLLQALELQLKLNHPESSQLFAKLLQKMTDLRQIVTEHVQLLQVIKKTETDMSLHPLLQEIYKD

Biological target: T1, human-type PPAR γ ligand-binding domain (Homo sapiens, UniProt P37231)
T1 construct: made in house; host or cells: Escherichia coli
Assay: Competition binding with [3H]KRP-297 to 6×His-hPPARγ ligand-binding domain
Conditions: competition with 100 nM [3H]KRP-297; test concentration not given
Description: Proteins (6×His-hPPARs LBD) tagged 6-copy histidine to the side of N-termini in the ligand-binding domains of human-type PPAR α and PPAR γ were expressed in Escherichia coli, respectively, and purified through a nickel column.

CN(CCOc1ccc(CC2SC(=O)NC2=O)cc1)c1ccccn1 (stereo not shown) [BRL-49,653, rosiglitazone, reference compound]
Binding to the ligand-binding domain of PPARγ: 99%
